# Reference: patent publication US20060189679A1, “C10 cyclopropyl ester substituted taxane compositions” (priority 2005, published 2006)
# System: HT-29 human colon tumor xenografts
# Assay: HT-29 human tumor xenograft studies in nude mice
# [1] = HT29-e80, 80 mg/kg PO Q7D × 3, listed as compound 3102
# [2] = HT29-e105, 120 mg/kg PO Q7D × 3
# [3] = HT29-e105, 150 mg/kg PO Q7D × 3
# [4] = HT29-e105, 180 mg/kg PO Q7D × 3
compound,measurement,setting,value
CC(=O)O[C@@]12CO[C@@H]1C[C@H](O)[C@@]1(C)C(=O)[C@H](OC(=O)C3CC3)C3=C(C)[C@@H](OC(=O)[C@H](O)[C@@H](NC(=O)OCC(C)C)c4ccco4)C[C@@](O)([C@@H](OC(=O)c4ccccc4)C12)C3(C)C (stereo partly shown) [Compound 3102],# Death NTR,"HT29-e79, 70 mg/kg PO Q4D × 4",0
same,# Death TR,"HT29-e79, 70 mg/kg PO Q4D × 4",0
same,#CR,"HT29-e79, 70 mg/kg PO Q4D × 4",0
same,#PR,"HT29-e79, 70 mg/kg PO Q4D × 4",6
same,#SD/PD,"HT29-e79, 70 mg/kg PO Q4D × 4",0
same,Max. % BW Loss; Day,"HT29-e79, 70 mg/kg PO Q4D × 4, Day 10",−6.1%;
same,#PR,"HT29-e79, 70 mg/kg PO Q4D × 4, listed as compound 3102",6/6
same,# Death NTR,"HT29-e80, 60 mg/kg PO Q7D × 3",0
same,# Death TR,"HT29-e80, 60 mg/kg PO Q7D × 3",0
same,#CR,"HT29-e80, 60 mg/kg PO Q7D × 3",0
same,#PR,"HT29-e80, 60 mg/kg PO Q7D × 3",0
same,#SD/PD,"HT29-e80, 60 mg/kg PO Q7D × 3",3
same,MDS to 1.0 g ± SEM (n),"HT29-e80, 60 mg/kg PO Q7D × 3",45.0 ± 6.8 (3) days
same,Max. % BW Loss; Day,"HT29-e80, 60 mg/kg PO Q7D × 3, Day 14",−3.8%;
same,# Death NTR,"HT29-e80, 80 mg/kg PO Q7D × 3",0
same,# Death TR,"HT29-e80, 80 mg/kg PO Q7D × 3",0
same,#CR,"HT29-e80, 80 mg/kg PO Q7D × 3",2
same,#PR,"HT29-e80, 80 mg/kg PO Q7D × 3",3
same,#SD/PD,"HT29-e80, 80 mg/kg PO Q7D × 3",1
same,Max. % BW Loss; Day,"HT29-e80, 80 mg/kg PO Q7D × 3, Day 14",−0.9%;
same,#CR,[1],2/6
same,#PR,[1],3/6
same,# Death NTR,"HT29-e80, 100 mg/kg PO Q7D × 3",0
same,# Death TR,"HT29-e80, 100 mg/kg PO Q7D × 3",0
same,#CR,"HT29-e80, 100 mg/kg PO Q7D × 3",0
same,#PR,"HT29-e80, 100 mg/kg PO Q7D × 3",5
same,#SD/PD,"HT29-e80, 100 mg/kg PO Q7D × 3",1
same,Max. % BW Loss; Day,"HT29-e80, 100 mg/kg PO Q7D × 3, Day 17",−9.2%;
same,Max. % BW Loss; Day,"HT29-e80, 100 mg/kg PO Q7D × 3, Day 17, listed as compound 3102",≤ 10%
same,#PR,"HT29-e80, 100 mg/kg PO Q7D × 3, listed as compound 3102",5/6
same,# Death NTR,"HT29-e105, 15 mg/kg PO Q7D × 3",0
same,# Death TR,"HT29-e105, 15 mg/kg PO Q7D × 3",0
same,MDS to 1.0 g ± SEM (n),"HT29-e105, 15 mg/kg PO Q7D × 3",27.7 ± 4.6 days
same,# Death NTR,"HT29-e105, 30 mg/kg PO Q4D × 4",0
same,# Death TR,"HT29-e105, 30 mg/kg PO Q4D × 4",0
same,MDS to 1.0 g ± SEM (n),"HT29-e105, 30 mg/kg PO Q4D × 4",35.6 ± 5.8 days
same,Max. % BW Loss; Day,"HT29-e105, 30 mg/kg PO Q4D × 4, Day 17",−2.7%;
same,# Death NTR,"HT29-e105, 30 mg/kg PO Q7D × 3",0
same,# Death TR,"HT29-e105, 30 mg/kg PO Q7D × 3",0
same,MDS to 1.0 g ± SEM (n),"HT29-e105, 30 mg/kg PO Q7D × 3",31.4 ± 5.8 days
same,# Death NTR,"HT29-e105, 40 mg/kg PO Q4D × 4",0
same,# Death TR,"HT29-e105, 40 mg/kg PO Q4D × 4",0
same,MDS to 1.0 g ± SEM (n),"HT29-e105, 40 mg/kg PO Q4D × 4",44.9 days
same,Max. % BW Loss; Day,"HT29-e105, 40 mg/kg PO Q4D × 4, Day 17",−9.1%;
same,# Death NTR,"HT29-e105, 50 mg/kg PO Q4D × 4",0
same,# Death TR,"HT29-e105, 50 mg/kg PO Q4D × 4",0
same,MDS to 1.0 g ± SEM (n),"HT29-e105, 50 mg/kg PO Q4D × 4",49.2 days
same,Max. % BW Loss; Day,"HT29-e105, 50 mg/kg PO Q4D × 4, Day 17",−9.7%;
same,# Death NTR,"HT29-e105, 60 mg/kg PO Q4D × 4",0
same,# Death TR,"HT29-e105, 60 mg/kg PO Q4D × 4",0
same,Max. % BW Loss; Day,"HT29-e105, 60 mg/kg PO Q4D × 4, Day 17",−13.5%;
same,# Death NTR,"HT29-e105, 60 mg/kg PO Q7D × 3",0
same,# Death TR,"HT29-e105, 60 mg/kg PO Q7D × 3",1
same,MDS to 1.0 g ± SEM (n),"HT29-e105, 60 mg/kg PO Q7D × 3",48.8 days
same,Max. % BW Loss; Day,"HT29-e105, 60 mg/kg PO Q7D × 3, Day 6",−5.9%;
same,# Death NTR,"HT29-e105, 70 mg/kg PO Q4D × 4",0
same,# Death TR,"HT29-e105, 70 mg/kg PO Q4D × 4",0
same,Max. % BW Loss; Day,"HT29-e105, 70 mg/kg PO Q4D × 4, Day 17",−13.2%;
same,# Death NTR,"HT29-e105, 80 mg/kg PO Q4D × 4",0
same,# Death TR,"HT29-e105, 80 mg/kg PO Q4D × 4",0
same,Max. % BW Loss; Day,"HT29-e105, 80 mg/kg PO Q4D × 4, Day 17",−15.4%;
same,# Death NTR,"HT29-e105, 90 mg/kg PO Q7D × 3",0
same,# Death TR,"HT29-e105, 90 mg/kg PO Q7D × 3",0
same,Max. % BW Loss; Day,"HT29-e105, 90 mg/kg PO Q7D × 3, Day 6",−5.6%;
same,# Death NTR,[2],0
same,# Death TR,[2],0
same,Max. % BW Loss; Day,"HT29-e105, 120 mg/kg PO Q7D × 3, Day 20",−13.3%;
same,# Death NTR,[3],0
same,# Death TR,[3],0
same,Max. % BW Loss; Day,"HT29-e105, 150 mg/kg PO Q7D × 3, Day 24",−17.3%;
same,# Death NTR,[4],0
same,# Death TR,[4],2
same,Max. % BW Loss; Day,"HT29-e105, 180 mg/kg PO Q7D × 3, Day 24",−27.4%;
